BindingDB's records for doi:10.1016/j.bmc.2007.04.050 (Universitat De Barcelona, 2007)

Target: 3-alpha-hydroxysteroid dehydrogenase AKR1C9 (Rattus norvegicus) (UniProt P23457)
Assay: Inhibition of rat liver 3-alpha-HSD assessed as 5-beta-dihydrocortisone reduction

- IC50: 100 µM
SMILES: CC(C)Cc1ccc([C@H](C)C(=O)O)cc1 [(RS)-ibuprofen]
